# Target: truncated human beta-secretase (residues 1-458, His6-tagged at the C-terminus) (Homo sapiens (Human), UniProt P56817)
# Test: BACE enzyme assay (fluorescence quench, Example 434A)
# Format: biochemical
compound,measurement,value
CN(C)C(=O)C1=CCC2(CC1)Cc1ccc(-c3cccc(C#N)c3)cc1C21N=C(N)N(C)O1 (stereo not shown) [Compound 458],IC50,3.7 µM
